According to ChEMBL document CHEMBL4765435, “Synthesis and in vitro anti-bladder cancer activity evaluation of quinazolinyl-arylurea derivatives” (Eur J Med Chem, 2020):

What was measured:
T-24 [1] = test: Induction of apoptosis in human T-24 cells assessed as early apoptotic cells at 3 uM in presence of zVAD incubated for 8 hrs by annexin V-FITC and PI staining based flow cytometry analysis (reference value: 3.37 %); format: functional
T-24 [2] = test: Induction of apoptosis in human T-24 cells assessed as necrotic cells at 3 uM incubated for 8 hrs by annexin V-FITC and PI staining based flow cytometry analysis (reference value: 0.84 %); format: functional

## Nc1ccn([C@@H]2O[C@H](CO)[C@@H](O)C2(F)F)c(=O)n1 [GEMCITABINE]
T-24 [1]
  Activity: 4.18%
T-24 [2]
  Activity: 5.36%
